Values quoted from earlier work as cited in US20080160065A1, “DRUG DELIVERY POLYMER WITH HYDROCHLORIDE SALT OF CLINDAMYCIN” (priority 2006, published 2008).
Where two headings read alike, the source gives them in different places.

Conditions: intramuscular

peak plasma concentration (after a 300 mg dose): approximately 61 μg/ml
peak plasma concentration (after a 600 mg dose): ~9 µg/mL
SMILES: CCC[C@@H]1C[C@@H](C(=O)N[C@@H]([C@H]2O[C@H](SC)[C@H](O)[C@@H](O)[C@H]2O)[C@H](C)Cl)N(C)C1 [clindamycin]
